Assay: Cytotoxicity against human NCI60 cells assessed as cell growth at 10 uM after 48 hrs
Type: functional
Details: NCI60, 48 h, read-out: Activity

**Q.** For `CN(C)CCCn1c2c(c3ccncc3c1=O)C(=O)c1ccccc1-2`, which growth at 10 µM is on record?
**A.** -9.25%

Source: ChEMBL document CHEMBL3808281, “Investigation of the Structure-Activity Relationships of Aza-A-Ring Indenoisoquinoline Topoisomerase I Poisons” (J Med Chem, 2016)
